From ChEMBL document CHEMBL1208697 (Bioorg Med Chem Lett, 2010) come the findings set out here.

A short description of this experiment: Selectivity index, ratio of IC50 for sheep COX1 to IC50 for human COX2.

As to `NS(=O)(=O)c1ccc(-n2nc(C(F)(F)F)cc2-c2ccc(/[N+]([O-])=N\O)cc2)cc1`, the Ratio IC50 was 0.95.
